Read-outs that look alike come from different tables or passages of the source.
Key:
[1] = system: PC-3; experiment: Cytotoxicity, MTT assay, PC-3; format: cell-based, human
Experimental: (§1) N—Ac-CHAVC-NH2 (SEQ ID NO:10) and the control peptide N—Ac-CHGVC-NH2 (SEQ ID NO:11) were evaluated for possible cytotoxic effects on human microvascular endothelial (HMVEC; Clonetics), human umbilical vein endothelial (HUVEC; ATCC #CRL-1730), IAFp2 (human fibroblast cell line; Institute Armand-Frapier, Montreal, Quebec), WI-38 (human fibroblast cell line; ATCC #CCL-75), MDA-MB231 (human breast cancer cell line; ATCC #HTB-26), and PC-3 (human prostate cancer cell line; ATCC #CRL-1435) cells utilizing the MTT assay (Plumb et al., Cancer Res. 49:4435-4440, 1989). Neither of the peptides was cytotoxic at concentrations up to and including 100 μM. Similarly, neither of the peptides was capable of inhibiting the proliferation of the above cell lines at concentrations up to 100 μM, as judged by ^3H-thymidine incorporation assays.

[2] = system: IAFp2; format: cell-based, human; details: 3 h
Experimental: as §1

[3] = system: PC-3; format: cell-based, human; details: 3 h
Experimental: as §1

[4] = system: HMVEC; format: cell-based, human; details: 3 h
Experimental: as §1

[5] = system: WI-38; format: cell-based, human; details: 3 h
Experimental: as §1

[6] = system: MDA-MB231; format: cell-based, human; details: 3 h
Experimental: as §1

[7] = system: HUVEC; format: cell-based, human; details: 3 h
Experimental: as §1

[8] = target: T1, N-cadherin (Gallus gallus, UniProt P10288); experiment: Neurite outgrowth inhibition, rat neurons (Example 21); format: cell-based; details: read-out: % Inhibition of neurite outgrowth; 250 μg/mL
T1 construct: expressed in transfected cells; host or cells: 3T3 fibroblasts (monolayer)
T1 sequence (P10288 165-912): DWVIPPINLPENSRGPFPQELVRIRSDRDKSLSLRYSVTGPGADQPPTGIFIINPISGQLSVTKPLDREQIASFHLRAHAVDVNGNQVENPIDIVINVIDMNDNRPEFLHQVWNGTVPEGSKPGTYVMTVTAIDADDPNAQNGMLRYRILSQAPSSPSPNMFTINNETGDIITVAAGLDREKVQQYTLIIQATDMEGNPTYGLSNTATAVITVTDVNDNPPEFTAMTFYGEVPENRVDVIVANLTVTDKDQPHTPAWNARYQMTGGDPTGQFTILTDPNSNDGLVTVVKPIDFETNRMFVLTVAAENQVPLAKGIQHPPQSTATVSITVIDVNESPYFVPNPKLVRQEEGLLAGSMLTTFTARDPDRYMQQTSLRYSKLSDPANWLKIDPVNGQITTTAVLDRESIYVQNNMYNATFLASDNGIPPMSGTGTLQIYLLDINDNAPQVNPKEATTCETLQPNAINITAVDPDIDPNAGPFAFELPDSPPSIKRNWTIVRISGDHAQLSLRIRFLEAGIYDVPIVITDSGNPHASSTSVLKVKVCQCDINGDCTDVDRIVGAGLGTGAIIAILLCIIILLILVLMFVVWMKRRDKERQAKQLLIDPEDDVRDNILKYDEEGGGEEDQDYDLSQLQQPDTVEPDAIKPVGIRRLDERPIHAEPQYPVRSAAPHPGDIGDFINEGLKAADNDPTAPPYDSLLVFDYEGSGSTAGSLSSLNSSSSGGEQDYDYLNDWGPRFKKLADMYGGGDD

[9] = system: MDA-MB231; experiment: Cytotoxicity, MTT assay, MDA-MB231; format: cell-based, human
Experimental: as §1

[10] = Stability of cyclic peptide in mouse whole blood; format: in vitro ADME; details: 37° C.
Experimental: 50 μl of a stock solution containing 12.5 μg/ml H-CHAVC-NH2 (SEQ ID NO:10) was added to mouse whole blood and incubated at 37° C. Aliquots were removed at intervals up to 240 minutes, precipitated with acetonitrile, centrifuged and analyzed by HPLC.

[11] = system: mice; experiment: Chronic toxicity study in mice; format: in vivo, mouse
Experimental: Varying amounts of H-CHAVC-NH2 (SEQ ID NO:10; 2 mg/kg, 20 mg/kg and 125 mg/kg) were injected into mice intraperitoneally every day for three days.

IC50 [2] [µM] | IC50 [3] [µM] | IC50 [4] [µM] | IC50 [6] [µM] | inhibition at 250 µg/mL [8] [%] | % Remaining ([10]; 0 min) [%] | stability in blood (in words) ([10]; up to 240 minutes) | SMILES | IC50 [1] [µM] | IC50 [5] [µM] | IC50 [7] [µM] | IC50 [9] [µM] | Body weight ([11]; mice, 2, 20 and 125 mg/kg intraperitoneally every day for three days, recovery days 4-8) | clinical symptoms ([11]; mice, 2, 20 and 125 mg/kg intraperitoneally every day for three days, treatment or recovery days) | autopsy findings ([11]; mice, 2, 20 and 125 mg/kg ip for three days, after four day recovery)
> 100 | > 100 | > 100 | > 100 | 0 | – | – | CC(C)[C@@H]1NC(=O)CNC(=O)[C@H](Cc2c[nH]cn2)NC(=O)[C@@H](N)CSSC[C@@H](C(N)=O)NC1=O [H—CHGVC—NH2] | > 100 | > 100 | > 100 | > 100 | – | – | –
> 100 | > 100 | > 100 | > 100 | 0 | 100.00 | generally good stability in blood | CC(C)[C@@H]1NC(=O)[C@H](C)NC(=O)[C@H](Cc2c[nH]cn2)NC(=O)[C@@H](N)CSSC[C@@H](C(N)=O)NC1=O [H—CHAVC—NH2] | > 100 | > 100 | > 100 | > 100 | no significant differences occurred | no clinical symptoms were observed | no abnormalities were observed

Source: patent US20040106545A1, “Compounds and methods for modulating cell adhesion” (priority 1996, published 2004)
